Assay results as given in publication PMC4215230, “Incorporation of Pentraxin 3 into Hyaluronan Matrices Is Tightly Regulated and Promotes Matrix Cross-linking” (The Journal of Biological Chemistry, 2014).

The chains behind the UniProt entries cited, without tags or fusion partners. Residues count along the entry.
UniProt P26022, 18-381: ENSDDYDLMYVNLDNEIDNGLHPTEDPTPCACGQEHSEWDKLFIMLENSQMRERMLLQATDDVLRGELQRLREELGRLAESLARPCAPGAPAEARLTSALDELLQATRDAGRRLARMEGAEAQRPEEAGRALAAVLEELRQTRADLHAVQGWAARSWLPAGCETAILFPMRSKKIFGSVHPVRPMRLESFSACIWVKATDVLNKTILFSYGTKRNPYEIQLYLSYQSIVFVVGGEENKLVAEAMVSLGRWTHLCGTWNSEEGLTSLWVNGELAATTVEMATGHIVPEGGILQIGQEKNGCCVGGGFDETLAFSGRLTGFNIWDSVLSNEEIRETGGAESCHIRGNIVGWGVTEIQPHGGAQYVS

Target: T1, Biotinylated PTX3 (human, UniProt P26022, NHS-PEG4-biotin on primary amines, on average 2 mol of biotin/mol of PTX3 protomer)
T1 construct: pentraxin 3 (PTX3), human, recombinant, biotinylated through primary amines; Immobilised on a streptavidin monolayer by its biotins, in a variety of orientations; also called b-PTX3; source: Chinese hamster ovary 3.5 cell line, purified, then modified with EZ-Link NHS-PEG4-Biotin
Assay: spectroscopic ellipsometry; b-PTX3 immobilised on a streptavidin monolayer at a monomer surface density of 4.8 pmol/cm^2; Link_TSG6 or rhTSG-6 added at identical molar bulk concentrations, then buffer rinse; HEPES buffer pH 7.4; no HA
Settings: both partners purified

B1: Full-length recombinant human TSG-6 (rhTSG-6) (natural protein, UniProt P98066 18-277, looked up)
chain: WGFKDGIFHNSIWLERAAGVYHREARSGKYKLTYAEAKAVCEFEGGHLATYKQLEAARKIGFHVCAAGWMAKGRVGYPIVKPGPNCGFGKTGIIDYGIRLNRSERWDAYCYNPHAKECGGVFTDPKQIFKSPGFPNEYEDNQICYWHIRLKYGQRIHLSFLDFDLEDDPGCLADYVEIYDSYDDVHGFVGRYCGDELPDDIISTGNVMTLKFLSDASVTAGGFQIKYVAMDPVSKSSQGKNTSTTSTGNKNFLAGRFSHL
notes: TSG-6 (secreted product of tumor necrosis factor-stimulated gene-6), human, full-length recombinant, 30.1 kDa; Link module and CUB module; also called full-length TSG-6; source: Drosophila Schneider 2 cells, purified
**Q.** With B1 as the binder, how does the “stoichiometry N” value read?
**A.** Its value is 4 TSG-6 binding sites per PTX3 octamer.
